Measurements: patent publication US20160303258A1, “COMPOUNDS AND COMPOSITIONS FOR IMAGING GCC-EXPRESSING CELLS” (MILLENNIUM PHARMACEUTICALS, INC., priority 2013, published 2016)
≈ marks a conversion by molar mass, not a printed value. Read-outs that look alike come from different tables or passages of the source.

The chains behind the UniProt entries cited, without tags or fusion partners. Residues count along the entry.
UniProt P25092, 24-1073: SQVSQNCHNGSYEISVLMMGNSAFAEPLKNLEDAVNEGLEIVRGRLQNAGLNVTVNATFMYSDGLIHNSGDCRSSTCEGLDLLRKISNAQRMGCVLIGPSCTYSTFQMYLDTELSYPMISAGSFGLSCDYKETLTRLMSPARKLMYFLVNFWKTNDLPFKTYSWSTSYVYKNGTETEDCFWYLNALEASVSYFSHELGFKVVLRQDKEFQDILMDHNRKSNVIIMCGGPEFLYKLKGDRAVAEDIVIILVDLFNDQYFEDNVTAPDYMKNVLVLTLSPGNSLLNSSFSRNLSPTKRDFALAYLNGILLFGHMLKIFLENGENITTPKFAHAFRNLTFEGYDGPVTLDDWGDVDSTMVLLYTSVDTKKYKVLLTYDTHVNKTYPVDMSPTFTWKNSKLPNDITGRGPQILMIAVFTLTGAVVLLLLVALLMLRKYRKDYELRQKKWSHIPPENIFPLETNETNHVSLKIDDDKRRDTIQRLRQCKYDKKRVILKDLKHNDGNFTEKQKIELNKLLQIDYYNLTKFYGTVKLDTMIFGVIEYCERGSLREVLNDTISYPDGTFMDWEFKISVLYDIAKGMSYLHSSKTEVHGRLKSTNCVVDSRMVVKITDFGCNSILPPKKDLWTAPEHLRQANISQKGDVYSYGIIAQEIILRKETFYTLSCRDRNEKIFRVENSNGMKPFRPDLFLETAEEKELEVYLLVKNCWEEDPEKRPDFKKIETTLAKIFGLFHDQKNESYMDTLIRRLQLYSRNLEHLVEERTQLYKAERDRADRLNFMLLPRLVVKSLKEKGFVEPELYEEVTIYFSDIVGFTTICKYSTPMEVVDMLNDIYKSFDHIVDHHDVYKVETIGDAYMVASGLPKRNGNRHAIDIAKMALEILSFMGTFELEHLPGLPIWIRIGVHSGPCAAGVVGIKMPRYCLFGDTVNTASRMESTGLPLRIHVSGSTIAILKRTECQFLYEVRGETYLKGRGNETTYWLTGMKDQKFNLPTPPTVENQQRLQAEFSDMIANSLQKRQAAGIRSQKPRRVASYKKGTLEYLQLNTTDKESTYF

Legend:
[1] = Pharmacokinetics and ex vivo biodistribution of 225Ac-labeled peptide in naive CB-17 SCID mice
Protocol: This study assays the pharmacokinetics and ex vivo biodistribution of Actinium-225 labeled STp(5-18) peptide, along with the daughter nuclides, in naïve CB-17 SCID mice.
All naïve mice were randomized into n=4×3 groups. All mice were administered 100 uL of formulated 225Ac-DOTA-Ahx-STp(5-18), IV, within 45 minutes of purification (100 uL=444598 CPM counted on the 225Ac window of the gamma counter). A subset of animals from each group was sacrificed at each of the following time points post injection: 0.5, 1, 4, and 24 hours. The following tissues were resected for weight and gamma counting from each carcass: blood, heart, kidney, liver, lungs, spleen, small intestine, large intestine, stomach. The ^225Ac content was determined at least 4 h after collection, to allow for ^213Bi/^225Ac equilibrium. To analyze daughter activities, the counter was calibrated and windows were set to collect gamma events from ^221Fr (g, 218 keV) for actinium quantitation and ^213Bi (g, 440 keV). Samples were counted within 20-50 min post-harvest and again after 213Bi/225Ac equilibrium had been reached (>4 h).
The gamma count runs were acquired according to the procedure described by Song et al. Specifically, samples were measured at three times immediately following sacrifice (˜30, 45, 60 minutes) in ^221Fr and ^213Bi windows and again at equilibrium (24 h post-sacrifice).
Data, including weight, time point, injection times, sacrifice times, subject ID, tissue, and CPM were read in automatically from the equilibrium ^225Ac spreadsheet. […] Percent injected dose per gram was computed as
Data, including weight, time point, injection times, sacrifice times, subject ID, tissue, and CPM were read in automatically from the ^213Bi and ^221Fr spreadsheets, including CPM measurements for three time points immediately following sacrifice (˜30, 45, 60 minutes post-injection). […] This CPM_0 was compared to the measured CPM at equilibrium decay-corrected to time-of-sacrifice (CPM_eq) both in terms of absolute difference and ratio. […]

GCC [2] = target: T1, GCC (Homo sapiens, UniProt P25092); assay: In vivo competitive binding and biodistribution in tumor xenograft models; set-up: endogenous in cells; species or system mice
Excerpt: Female CB-17 severe combined immunodeficient (SCID) mice bearing cell line or primary tumor derived xenografts were used to assess competitive binding and biodistribution of [^68Ga]MLN6907 DP in vivo. Four xenograft models that express different levels of GCC were used. Two models were derived from cell lines: HEK-293 GCC Clone 2 (human embryonic kidney) and T84 (colon carcinoma), and two models were primary colon adenocarcinoma human tumor models: PHTX-21C and PHTX-17C. In the mice, tumor cells or fragments and tumors were allowed to grow until reaching a volume of 200 to 700 mm^3. GCC expression level, previously determined by IHC using a scoring system of 0-300 (H-score [apical and cytoplasmic]) to indicate GCC concentration in a separate set of tumor samples, as 300 and 270, 0 and 300, and 40 and 50 for T84, HEK-293 GCC Clone 2, and PHTX-17C, respectively. Mice were then administered a single IV dose of [68Ga]MLN6907 DP (0.01, 0.02, 0.15, or 0.2 μg) with increasing concentrations of MLN6907 DSP (0, 1.8, 1.85, or 20 μg). Tumor, blood, liver, and kidneys were collected at 1 hour postdose and assayed for ^68Ga activity using a gamma counter; uptake and biodistribution of [^68Ga]MLN6907 DP was determined as the % ID/g.
The addition of MLN6907 DSP had no major effect on [^68Ga]MLN6907 DP uptake in non-GCC-expressing tissues (blood, liver, and kidney). […]

Solubility of bulk DSP1 = assay type: physicochemical
Protocol: Bulk DSP1 has a low solubility of about 0.1 mg/ml, and an aqueous solution formulation was developed. This aqueous formulation is referred to as DSP2. Solubility could be increased in several ways. […] This can be seen in FIG. 3A, where increasing the ethanol concentration increases solubility of DSP1. Ethanol can also enhance labeling efficiency. […] However, this advantage in solubility is offset by the decrease in labeling efficiency at higher pHs, as shown in the following section. Third, heat and mechanical mixing improved solubility.

GCC [3] = target: T1, GCC; assay: In vitro competitive binding assay, displacement of [111In]MLN6907 in HEK-293 GCC Clone 2 cells; set-up: expressed in transfected cells; host or cells: HEK-293 GCC Clone 2 (GCC-expressing HEK-293 cells)
Protocol: In an in vitro competitive binding assay to evaluate the effects of the ^68GaCl3 chelation reaction labeling conditions (mixing with acetone: HCl [98:2] and heating at approximately 100° C. for 10 minutes) on [^68Ga]MLN6907 DP (drug product) GCC affinity. […] The competition for binding to the ligand (GCC) and concomitant percentage displacement of radiolabeled [^111In]MLN6907 after the addition of increasing concentrations (8.5×10^−6 to 500 nM) of cold peptide (untreated or treated MLN6907 DSP) was calculated by measuring the final radioactivity in the cells using a gamma counter. […] The difference in affinity between untreated and treated MLN6907 DSP was not significant (p>0.05).

[4] = Blood pharmacokinetics in mouse model; assay type: in vivo; details: intravenous; mouse model, blood clearance through renal excretion; read-out: t1/2 in blood
Protocol: FIG. 15. […] The y axis is the injected dose (% ID) per gram of tissue. In all three systems tested, blood clearance of the compound is rapid.
The KD of MLN6907 for cell-surface GCC was calculated using an in vitro competitive binding assay with HEK-293 GCC clone 2 cells (FIG. 13). Antigen surface density of GCC on HEK-293 GCC clone 2 cells was estimated in vitro by Western blotting, and in vivo in the mouse model (FIG. 16). Decreased [68Ga]MLN6907 uptake in the tumor results from GCC receptor competition from added unlabeled peptide. […] The tumor uptake of [^68Ga]MLN6907 differed in tumors with varying levels of GCC expression and phenotype and is reflected in the initial in vivo calculated Bmax values.

[5] = GLP-compliant 2-week repeat-dose toxicology study in rats; assay type: in vivo, Sprague-Dawley rats
Excerpt: (§1) MLN6907 DSP had no effect on central nervous system (CNS), cardiovascular (CV), or respiratory safety pharmacology endpoints evaluated in the GLP-compliant, 2-week, repeat-dose toxicology studies in Sprague-Dawley rats and cynomolgus monkeys.
(§2) The toxicology studies with MLN6907 DSP were designed to address the target tissues for toxicity, the dose-limiting toxicity, noninvasive methods for monitoring of clinically relevant toxicities, and the reversibility of adverse effects. Both rats and monkeys are pharmacologically responsive to the effects of the STp(5-18) peptide portion of MLN6907.
(§3) These studies support that, as a result of anatomic privilege, the normal intestine will not be a target for [68Ga]MLN6907 DP. In both studies, the no-observed-effect level (NOEL) was 0.25 mg/kg.
(§4) Toxicokinetics (TK) and immunogenicity of the MLN6907 DSP were evaluated as part of the GLP-compliant, 2-week, repeat-dose toxicology studies. There were no marked sex-related differences in exposure to MLN6907 DSP in Sprague-Dawley rats or cynomolgus monkeys. […] The immunogenicity of the peptide component of MLN6907 was assessed by measuring rat and monkey antipeptide antibodies (rodent antipeptide antibody [RAPA] and primate antipeptide antibody [PAPA]). Briefly, antipeptide antibodies were detecting using FITC-STa and biotinylated-STa combined to capture anti-STa antibodies, then incubated and washed, followed by detection of the bound antibody with Streptavidin-Sulfo tag.
(§5) Local tolerance of decayed nonradioactive [^68Ga]MLN6907 DP and MLN6907 DSP was evaluated using an in vitro hemolysis assay and as part of the GLP-compliant 2-week, repeat-dose toxicology studies, respectively.

[6] = GLP-compliant 2-week repeat-dose toxicology study in monkeys; assay type: in vivo, cynomolgus monkeys
Excerpt: as §1, §2, §3, §4, §5

## CC(C)C[C@@H]1NC(=O)[C@H](CCC(=O)O)NC(=O)[C@@H]2CSSC[C@@H]3NC(=O)[C@H](C)NC(=O)[C@@H]4CCCN4C(=O)[C@H](CC(N)=O)NC(=O)[C@H](CSSC[C@H](NC(=O)CCCCCNC(=S)Nc4ccc(C[C@H]5CN(CC(=O)O)CCN(CC(=O)O)CCN(CC(=O)O)CCN5CC(=O)O)cc4)C(=O)N2)NC(=O)[C@H](CSSC[C@@H](C(=O)N[C@@H](Cc2ccc(O)cc2)C(=O)O)NC(=O)CNC(=O)[C@H](C)NC3=O)NC1=O [^225Ac-DOTA-Ahx-STp(5-18), metal not drawn]
[1]; any of the tissues except kidney
  accumulation of the 221Fr or 213Bi daughter decay products: substantially no accumulation
[1]; naive CB-17 SCID mice, IV
  accumulation in the other tissues measured: no substantial accumulation
  uptake in the kidney: high uptake

## CC(C)C[C@@H]1NC(=O)[C@H](CCC(=O)O)NC(=O)[C@@H]2CSSC[C@@H]3NC(=O)[C@H](C)NC(=O)[C@@H]4CCCN4C(=O)[C@H](CC(N)=O)NC(=O)[C@H](CSSC[C@H](NC(=O)CCCCCNC(=S)Nc4ccc(C[C@H]5CN(CC(=O)O)CCN(CC(=O)O)CCN(CC(=O)O)CCN5CC(=O)O)cc4)C(=O)N2)NC(=O)[C@H](CSSC[C@@H](C(=O)N[C@@H](Cc2ccc(O)cc2)C(=O)O)NC(=O)CNC(=O)[C@H](C)NC3=O)NC1=O [MLN6907 DSP]
GCC [2]
  EC50: 97.1 to 5660 nM
Solubility of bulk DSP1; addition of ethanol (range of 5-25%)
  increase in solubility: up to 10 fold
Solubility of bulk DSP1; bulk DSP1
  solubility: ~100 µg/mL (≈ 47.4 µM)
Solubility of bulk DSP1; heating 60° for 10 minutes, or shaking 45 minutes at room temperature
  increase in solubility: 5 to 7 fold
Solubility of bulk DSP1; increasing the pH of the solvent from 3.5 to 5
  increase in solubility: about 19 fold
Solubility of bulk DSP1; pH 5, after increasing pH from 3.5 to 5
  solubility: > 1000 µg/mL
GCC [3]
  IC50: 4.75 nM
GCC [3]; IC50, inhibition of [111In]MLN6907 binding, untreated MLN6907 DSP (without chelation reaction conditions), HEK-293 GCC Clone 2 cells
  IC50: 4.59 nM
[4]
  half-life: 26 min
[5]; human equivalent dose of one-tenth of the rat NOEL (0.25 mg/kg)
  allowable phase 1 clinical starting mass dose: 282 µg
[5]; rats
  no-observed-effect level (NOEL): 0.25 mg/kg
[5]; rats, 2-week repeat-dose
  CNS, cardiovascular or respiratory safety pharmacology endpoints: no effect
[5]; rats, any dose
  immunogenicity, rodent antipeptide antibody (RAPA): no immunogenicity response
[5]; rats, dose formulations up to 0.10 mg/mL
  local tolerance, injection site findings: nor were there any injection site findings
[5]; rats, doses up to 0.25 mg/kg IV Days 1, 4, 8, 11, 14, 14-day recovery
  toxicity findings: no findings indicative of toxicity
[5]; rats, toxicokinetics
  accumulation in the plasma: no marked accumulation
[5]; vs proposed human mass dose range of up to 43.4 μg on a mg/kg basis
  margin of allowable starting dose over proposed human mass dose: greater than 67 fold
[6]
  no-observed-effect level (NOEL): 0.25 mg/kg
[6]; 2-week repeat-dose
  CNS, cardiovascular or respiratory safety pharmacology endpoints: no effect
[6]; any dose
  immunogenicity, primate antipeptide antibody (PAPA): no immunogenicity response
[6]; dose formulations up to 0.10 mg/mL
  local tolerance, injection site findings: nor were there any injection site findings
[6]; doses up to 0.25 mg/kg IV Days 1, 4, 8, 11, 14, 14-day recovery
  toxicity findings: no findings indicative of toxicity
[6]; toxicokinetics
  accumulation in the plasma: no marked accumulation
